Experimental findings from US20090036518A1, “PHARMACEUTICAL COMPOSITION CONTAINING FLAVONOIDS” (TAIPEI MEDICAL UNIVERSITY, priority 2005, published 2009) are described below.

This assay concerns high affinity rolipram binding sites (HARBS) of the PDE4 (PDE4H). Put plainly: Assay II: replacement of [3H]-rolipram bound on particulate HARBS of whole brain. Set-up: species or system guinea pig. Conditions: ratio of HARBS EC50 to PDE4 IC50. How it is done:
The binding experiments are carried on basis of the methods of Schneider et al and Zhao et al with a small modification. Under a protocol approved by the Animal Care and Use Committee of Taipei Medical University, five male guinea pigs (Hartley), weighing 500-600 g, are anesthetized. The whole brains taken therefrom are homogenized with in 10 volumes of cold medium (pH 6.5) containing 20 mM Bis-tris, 2 mM benzamidine, 2 mM EDTA, 50 mM sodium chloride, 0.1 mM phenylmethanesulfonyl fluoride (PMSF), and 1 mM dithiothreitol. At 4[…], the homogenate is centrifuged at 170 g for 15 min for removing blood vessels and connective tissues, and the supernatant thereof is then re-centrifuged at 40,000 g for 30 min for separating the particulates from the cytosol of cells.
The final concentration of [^3H]-rolipram is 2 nM. […] After incubation, the reaction is stopped by transferring the reaction vessel to a bath of crashed ice. Then the reaction mixture is filtered through a punched glass fiber filter (Whatman GF/B) placed in a mini funnel, which is adopted to a 1.5 ml of Eppendorff's tube for collecting the filtrate in the mini centrifuge at 1000 rpm (100 g) for 10 seconds. […] The Whatman GF/B filter is mixed with 2 ml of cocktail and counted by the β-scintillation counter (Backman, Fullerton, Calif., USA) for counting the radioactivity thereof.

Turning to `O=c1c(-c2ccc(O)cc2)coc2cc(O)cc(O)c12` [Genistein], the “PDE4H/PDE4L ratio (EC50/IC50)” value worked out at 5.05.
